Values quoted from earlier work in patent US7517870B2, “Use of compounds that interfere with the hedgehog signaling pathway for the manufacture of a medicament for preventing, inhibiting, and/or reversing ocular diseases related with ocular neovascularization” (Fondazione Telethon, priority 2004, dated 2009).

Tested on: breast cancer cells
Details: via the Hh signalling pathway; cited from earlier work

Question: With `CC1=C2C[C@H]3[C@@H](CC=C4C[C@@H](O)CC[C@@]43C)[C@@H]2CC[C@]12O[C@@H]1C[C@H](C)CN[C@H]1[C@H]2C` [cyclopamine] as the molecule, how does the “growth of breast cancer cells” value read?
Answer: blocks the growth of breast cancer cells
